# Test system: maize haploid seedlings of origin Oh43
# Assay: doubled haploid production trial, Oh43 haploids (Example 4)
# Details: second study, out of 50 treated Oh43 haploid seedlings
# Method: Ten to nineteen plants were treated for each plot. Self pollinations were conducted on these treated haploids if there were fertile sectors on the tassel. Pollen grains were collected carefully on a sheet of paper and transferred to the silks repeatedly. Silks and husks were cut back prior to pollination in order to permit maximum seed set. The numbers of fertile tassel and ear sectors, as well as the numbers of anthers and selfed kernels were recorded. Statistical analyses were as described above.
smiles,measurement,value
"[N-]=[N+]=O [nitrous oxide gas, nitrous oxide]",treated seedlings died from fungus attack,fourteen
